{"source": "patent US20090123377A1", "about": "“Method for Testing Substances or Mixtures of Substances,Use of Said Method and Corresponding Test Kits” (BASF AKTIENGESELLSCHAFT, priority 2005, published 2009)", "tested_on": "L-FABP", "assay": "Immunological determination of L-FABP by Western blotting in liver extracts of exposed rats", "details": "rat liver extract, high dosage, 10 days, versus control after 10 days"}
{"molecule": "Cc1c([N+](=O)[O-])cccc1[N+](=O)[O-]", "values": [{"measurement": "L-FABP level by Western blotting", "value": "decrease in L-FABP"}]}
{"molecule": "WY 14,643", "values": [{"measurement": "L-FABP level by Western blotting", "value": "tendency to a slight increase"}]}
